# Ab-95 light chain CDR variants: yeast mating affinities

Binding partner: SARS-CoV-2 spike HR2 peptide, sequence PDVDLGDISGINAS.

Parent: Ab-95, a human scFv built as VH, a 15-residue (Gly4Ser)3 linker, VL. Only the CDRs of the light chain vary.
VH: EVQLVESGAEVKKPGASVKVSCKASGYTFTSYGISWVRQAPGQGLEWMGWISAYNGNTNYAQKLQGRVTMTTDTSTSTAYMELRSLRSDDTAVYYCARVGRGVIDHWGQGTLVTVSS
VL: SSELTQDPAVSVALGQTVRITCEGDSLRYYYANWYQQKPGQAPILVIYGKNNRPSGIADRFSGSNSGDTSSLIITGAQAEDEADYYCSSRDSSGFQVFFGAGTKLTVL

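The starting antibody came from a phage panning campaign against this peptide. In library AAYL52, one, two or three CDR residues were substituted; doubles and triples were drawn at random. The scFvs were displayed on barcoded MATa yeast, the peptide on MATalpha yeast. After mating in shaken culture at 30 °C for 16 h, diploids were selected and their barcode pairs sequenced. Each replicate has its own calibration line, from reference interactions of the BCL2 family. Mating was done three times.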

Variants are written as CDR1, CDR2 and CDR3 of the light chain (limits as in the source). Parent: EGDSLRYYYAN, GKNNRPS, SSRDSSGFQVF. Numbers give log10(Kd / nM), so 0 is 1 nM and 3 is 1 µM. Smaller is tighter. A pair that was not seen in that replicate is written "ND"; this usually means weak binding, but a binder can also be missed. Nonspecific signal, from three strains lacking the peptide, appeared in 28% of pairings of library AAYL52, centred on 3.91 (5% of these signals below 2.90); values are not corrected for it. Also given: how often the same scFv was detected with the empty control strains, with their mean in brackets. In this assay the parent's reference entry averaged 2.31; its copy inside this library read 2.25.

CDR-L1,CDR-L2,CDR-L3,log10 Kd (nM) by replicate,signal with controls
EGMFLRYYYAN,GKNNRPS,SSRCSSGFQVF,3.44 4.35 ND,2 of 9 (4.28)
EGDSLRYYEAN,GKNNRYS,SSRDSSKFQVF,3.21 2.84 3.08,3 of 9 (3.70)
EGDSSRYYYWN,GKNGRPS,SSRDSSGFQVF,ND ND ND,0 of 9
EGDSLRYYYGN,GKENRPS,SSRDSSSFQVF,3.39 4.90 ND,2 of 9 (3.13)
NGDSLRYYYAN,GKNQRMS,SSRDSSGFQVF,1.95 1.64 0.94,0 of 9
EGDSNRYYCAN,GKNNRDS,SSRDSSGFQVF,3.84 3.95 ND,2 of 9 (4.13)
EGDSHRCYYAN,GKNNYPS,SSRDSSGFQVF,ND ND ND,0 of 9
EGDLLRYYYAN,GKSNRPD,SSRDSSGFQVF,2.11 1.40 1.21,2 of 9 (4.22)
EGDSLRYYYHN,GMNNFPS,SSRDSSGFQVF,ND ND ND,3 of 9 (3.90)
CGDSLRYYYAN,GPNNRPS,SSRGSSGFQVF,2.86 3.18 2.96,1 of 9 (3.57)
EGDSLRYYYVN,GKLNRPS,SSMDSSGFQVF,4.52 5.77 ND,4 of 9 (3.92)
EGDSVRYSYAN,GKNNRVS,SSRDSSGFQVF,1.83 1.72 1.81,2 of 9 (4.50)
EVDSLRYYYAN,GKNNRPS,FSRDSSGFQVE,3.93 3.58 3.67,3 of 9 (3.66)
MGDSLRYYFAN,GKNNRPS,SSCDSSGFQVF,ND 4.36 ND,2 of 9 (3.74)
ECDSLRLYYEN,GKNNRPS,SSRDSSGFQVF,4.41 ND 3.74,3 of 9 (3.63)
EVDSLRYYYAN,IKNNRPS,SSRDSSGMQVF,2.22 2.75 2.58,3 of 9 (4.16)
EGDSLRYYYAN,GKNNRPR,SSVNSSGFQVF,3.55 4.68 3.46,5 of 9 (4.35)
EGDSLRYYYAN,GANNRPG,SSRDSEGFQVF,2.59 2.32 2.10,2 of 9 (4.33)
EGDSLRYYYAN,GKFNRPS,SSRDSSGFQDF,4.12 5.48 4.25,4 of 9 (3.98)
EGDSLNYYYAN,GRNNRPS,SWRDSSGFQVF,ND ND ND,1 of 9 (4.34)
EGDSLRYYYAP,NKNNRPS,SSRDSSGFQVF,ND ND ND,2 of 9 (3.79)
EQDSLRYYYAN,GKNNRPS,SSRFSSGMQVF,3.22 ND ND,2 of 9 (4.02)
EGDALRYKYAN,GKNNRPK,SSRDSSGFQVF,2.12 2.15 1.70,3 of 9 (3.75)
EGDSWRYYGAN,GKPNRPS,SSRDSSGFQVF,ND 4.46 ND,4 of 9 (4.21)
EGDSLRYYYAN,GKNNPPS,SSRNSSGFHVF,3.69 4.23 ND,2 of 9 (3.18)
EGDVLRYYYRN,GKNNRPS,SSRDESGFQVF,3.04 ND ND,4 of 9 (4.06)
EGWSLRYCYAN,GKNNRPS,SSCDSSGFQVF,2.51 3.07 ND,1 of 9 (2.27)
EGDSLRYYWAN,GKNNRPS,SSGDSSTFQVF,ND ND ND,0 of 9
EGDSLRYYIAN,PKNNRMS,SSRDSSGFQVF,ND ND ND,2 of 9 (4.24)
EGDSLRYYYAN,GKNNAPS,SVRDSSGFQKF,2.62 3.14 3.07,4 of 9 (3.87)

The first 5 variants above that were never detected:

CDR-L1,CDR-L2,CDR-L3,log10 Kd (nM) by replicate,signal with controls
EGDSSRYYYWN,GKNGRPS,SSRDSSGFQVF,ND ND ND,0 of 9
EGDSHRCYYAN,GKNNYPS,SSRDSSGFQVF,ND ND ND,0 of 9
EGDSLRYYYHN,GMNNFPS,SSRDSSGFQVF,ND ND ND,3 of 9 (3.90)
EGDSLNYYYAN,GRNNRPS,SWRDSSGFQVF,ND ND ND,1 of 9 (4.34)
EGDSLRYYYAP,NKNNRPS,SSRDSSGFQVF,ND ND ND,2 of 9 (3.79)

The measurements come from Engelhart et al. 2022 (doi:10.1038/s41597-022-01779-4) through the FLAb antibody collection.